Experimental data taken from US6900336B2, “8-aza-11-deoxy prostaglandin analogues” (Syntex (U.S.A.) LLC, priority 2001, dated 2005).

Amino acid sequences for entries named in this document (tags omitted). A change or cut given only in a name is not applied to a line headed by its entry.
UniProt P35408: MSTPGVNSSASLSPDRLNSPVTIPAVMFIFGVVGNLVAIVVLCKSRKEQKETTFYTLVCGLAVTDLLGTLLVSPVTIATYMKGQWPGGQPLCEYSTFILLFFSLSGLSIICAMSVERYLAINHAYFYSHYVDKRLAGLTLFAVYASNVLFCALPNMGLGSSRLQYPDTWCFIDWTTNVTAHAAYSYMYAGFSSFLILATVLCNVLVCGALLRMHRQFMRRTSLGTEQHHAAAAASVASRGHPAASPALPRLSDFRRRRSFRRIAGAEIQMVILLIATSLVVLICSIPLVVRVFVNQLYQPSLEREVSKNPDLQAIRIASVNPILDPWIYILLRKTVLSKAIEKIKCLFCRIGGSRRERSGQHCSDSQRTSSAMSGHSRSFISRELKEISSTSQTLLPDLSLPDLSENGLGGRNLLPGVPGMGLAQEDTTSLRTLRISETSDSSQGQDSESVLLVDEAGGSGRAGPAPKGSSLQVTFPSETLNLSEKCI
UniProt P43116: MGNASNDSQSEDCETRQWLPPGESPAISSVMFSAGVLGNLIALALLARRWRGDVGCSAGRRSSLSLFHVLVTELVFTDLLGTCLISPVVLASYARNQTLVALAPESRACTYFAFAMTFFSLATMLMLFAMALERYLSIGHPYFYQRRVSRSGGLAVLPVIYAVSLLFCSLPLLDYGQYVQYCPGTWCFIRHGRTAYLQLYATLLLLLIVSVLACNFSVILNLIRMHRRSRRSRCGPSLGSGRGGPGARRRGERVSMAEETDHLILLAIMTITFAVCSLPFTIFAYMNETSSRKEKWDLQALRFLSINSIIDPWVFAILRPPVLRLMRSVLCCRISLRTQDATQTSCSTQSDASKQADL

What was measured:
rEP3 Receptor = biological target: T1, rEP3 Receptor (UniProt P34980); test: Competitive Binding Assay of [3H]PGE2 to rEP3 Receptor; conditions: 3 nM [3H]PGE2, membrane fraction, 1 hr at 30° C.; read-out: EP3, Ki
T1 sequence (P34980 1-365): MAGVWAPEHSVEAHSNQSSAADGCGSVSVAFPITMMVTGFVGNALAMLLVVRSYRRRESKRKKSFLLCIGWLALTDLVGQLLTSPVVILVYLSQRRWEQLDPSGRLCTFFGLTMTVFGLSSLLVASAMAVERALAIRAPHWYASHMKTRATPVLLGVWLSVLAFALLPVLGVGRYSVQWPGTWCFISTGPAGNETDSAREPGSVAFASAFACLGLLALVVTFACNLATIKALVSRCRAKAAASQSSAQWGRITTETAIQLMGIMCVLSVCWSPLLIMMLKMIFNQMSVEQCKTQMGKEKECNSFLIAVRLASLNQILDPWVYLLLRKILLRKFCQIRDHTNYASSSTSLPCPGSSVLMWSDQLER
Procedure: (§1) Competitive Binding Assay of [^3H]PGE2 to rEP1 or rEP3 Receptor
(§2) The cells were maintained in culture then harvested upon confluency. […] Incubations were conducted for 1 hr at 30° C. prior to separation of the bound and free radioligand by rapid filtration. Residual [^3H]PGE2 bound to the filter was quantitated by liquid scintillation counting. The Ki of a compound was calculated by the program of one site binding calculation of Prism.

EP4 Receptor = biological target: T2, EP4 Receptor (Homo sapiens, UniProt P35408); test: EP4 Ki (table under competitive [3H]PGE2 binding assay)
T2 construct: host or cells: unnamed cultured cells, membrane fraction
Procedure: [Worded in the source for another target; this target is reported under the same test.] as §1
as §2, with “confluency. The membrane was prepared by two times of centrifugation (12,000× g for 15 min) following lysis of cells by polytron homogenization of 15 sec. in 10 volume of 20 mM Hepes pH 7.4 containing 1 mM EDTA, 10 mM MgCl2, 20 uM indomethacin at 4° C.” for “confluency.”

EP2 Receptor = biological target: T3, EP2 Receptor (Homo sapiens, UniProt P43116); test: EP2 Ki (table under competitive [3H]PGE2 binding assay)
T3 construct: host or cells: unnamed cultured cells, membrane fraction

“7-{(R)-2-[(E)-3-(4′-Chloro-2′-methyl-biphenyl-3-yl)-3-hydroxy-propyl]-5-oxo-pyrrolidin-1-yl}-heptanoic acid [Compound 50]” showed a Ki (rEP3 Receptor) of over 100 µM, a Ki (EP4 Receptor) of 0.008 µM and a Ki (EP2 Receptor) of 26 µM.
